{"source": "patent US20230192799A1", "about": "“CNP Variants and Conjugates Thereof” (BIOMARIN PHARMACEUTICAL INC., priority 2019, published 2023)", "origin": "cited, not measured here", "details": "in vivo in humans; cited from earlier work", "data": [{"sequence": "GLSKGCFGLKLDRIGSMSGLGC [CNP22]", "values": [{"measurement": "plasma half-life", "result": 2.6, "unit": "min"}]}]}
